Literature values as cited in patent US20070048320A1, “Method for indentifying modulators of PPIL2 useful for treating Alzheimer's disease” (priority 2005, published 2007).

The chains behind the UniProt entries cited, without tags or fusion partners. Residues count along the entry.
UniProt P56817, 46-501: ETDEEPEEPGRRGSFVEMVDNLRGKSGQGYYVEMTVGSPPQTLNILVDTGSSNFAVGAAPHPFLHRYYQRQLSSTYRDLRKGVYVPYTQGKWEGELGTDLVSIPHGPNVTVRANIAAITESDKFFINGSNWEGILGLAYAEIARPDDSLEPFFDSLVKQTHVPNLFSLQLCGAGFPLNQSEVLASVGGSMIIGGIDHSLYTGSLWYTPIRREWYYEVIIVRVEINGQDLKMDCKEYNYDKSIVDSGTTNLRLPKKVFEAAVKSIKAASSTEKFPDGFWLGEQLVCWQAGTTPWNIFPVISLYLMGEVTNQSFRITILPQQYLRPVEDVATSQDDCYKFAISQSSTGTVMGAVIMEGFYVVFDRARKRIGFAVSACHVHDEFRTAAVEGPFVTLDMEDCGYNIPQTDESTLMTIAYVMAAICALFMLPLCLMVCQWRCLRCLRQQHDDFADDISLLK

Target: T1, recombinant β-secretase produced in E. coli (Homo sapiens, UniProt P56817)
T1 construct: host or cells: E. coli
Conditions: read-out: Ki towards recombinant β-secretase

## VNL*AAEF [OM99-1]
  Ki: 68.4 nM
